# Results reported in PubChem BioAssay AID652106 (National Center for Advancing Translational Sciences (NCATS), 2013).
# This is a selection; strong and weak results do not stand in their true shares. Calls of active or inactive are those of the source. The call rests on the fitted dose curve; in most records, active means well fitted activation curve with a large enough effect; inconclusive means small, poorly fitted or top-dose-only effect; inactive means no such curve, though single readings can be large or run the other way.
# Assay: qHTS of alpha-syn Inhibitors; further: % of control where 0% means no effect; nearly all actives have a fitted effect of over 65% in size
# Details: Yeast expressing alpha-synuclein, BacTiter-Glo, 24 h; at 46.1 µM (top of the series) unless noted
# Description: The goal of this project is to identify new chemical probes capable of reversing the toxicity associated with the Parkinson disease-related protein, alpha-synuclein. Compounds will be selected on their ability to restore growth in yeast cells expressing toxic levels of alpha-synuclein. These compounds will provide a complementary approach to deciphering the tangled mechanisms of toxicity and protection that we have uncovered through genome-wide genetic screens and are beginning to uncover in a large-scale proteomics analysis with mass spectroscopy. To this end, a miniaturized assay was developed to be screened against the Molecular Libraries Small Molecule Repository (MLSMR) to discover alpha-synuclein inhibitors. Please note that in the set-up this yeast-based assay compounds that inhibit as alpha-syn, have a read-out as activators. NIH Chemical Genomics Center [NCGC] NIH Molecular Libraries Probe Centers Network [MLPCN] MLPCN Grant: NS060957 Assay Submitter (PI): Susan Lindquist, Whitehead Institute/MIT
# Dispense 2.5 microL yeast galactose medium per 1536-well plate, pin compound, dispense 2.5 microL alpha-synuclein expressing yeast in galactose medium at OD600=0.02 (pregrown in raffinose medium to mid-log phase) per well, incubate for 24 hr at 30 deg C, and cell growth will be measured using 5 microL of Bactiter/Glo reagent to entire plate and read using Luminescence Protocol in ViewLux.
row,Compound,growth rescue (activation)
1,CCCCOc1ccc(C(=O)NCC2(N3CCOCC3)CCCCC2)cc1,inactive: 5.72%
2,CCCCn1nnnc1C(c1cc2ccccc2o1)N1CCC(n2c(=O)[nH]c3ccccc32)CC1 (configuration not stated),inactive: 6.39%
3,O=P1(N(CCCl)CCCl)SCCCS1,inactive: -1.18%
4,CCOc1ccc(C)cc1CN(CCCl)CCCl,inactive: -3.1%
5,O=C1CCN(Cc2ccccc2)CC1,inactive: -3.13%
6,O=C(NCC1(N2CCOCC2)CCCCC1)c1ccc(Cl)cc1,inactive: 2.39%
7,CC(C)(C)n1nnnc1C(c1ccccc1)N1CCC(n2c(=O)[nH]c3ccccc32)CC1 (configuration not stated),inactive: -5.55%
8,O=c1[nH]c2ccccc2n1C1CCN(C(c2cccc3ccccc23)c2nnnn2C2CCCC2)CC1 (configuration not stated),inactive: 9.09%
9,COc1cc(C(=O)NCC2(N(C)C)CCCCC2)ccc1OC(F)F,inactive: -13.9%
10,CCOC(=O)N1CCC(Nc2cccc(C)c2)CC1,inactive: 6.76%
11,O=c1[nH]c2ccccc2n1C1CCN(C(c2ccccc2)c2nnnn2C2CCCCC2)CC1 (configuration not stated),inactive: 2.67%
12,Cc1cccc(NC2(C#N)CCN(Cc3ccccc3)CC2)c1,inactive: 8.85%
13,CSc1ccccc1C(=O)NCC1(N2CCCCC2)CCCCC1,inactive: -5.23%
14,CCCCn1nnnc1C(c1cccs1)N1CCC(n2c(=O)[nH]c3ccccc32)CC1 (configuration not stated),inactive: -0.324%
15,CCCCn1nnnc1C(CC)N1CCC(n2c(=O)[nH]c3ccccc32)CC1 (configuration not stated),inactive: 3.97%
16,O=C(NCC1(N2CCCCC2)CCCCC1)c1cccs1,inactive: -1.86%

row,Compound,growth rescue (activation)
1,O=C(NCC1(N2CCCCC2)CCCCC1)c1ccc(=O)[nH]c1,inactive: -0.468%
2,CCC(c1nnnn1C1CCCC1)N1CCC(n2c(=O)[nH]c3ccccc32)CC1 (configuration not stated),inactive: -0.288%
3,COc1ccc(C(=O)NCC2(N3CCCCC3)CCCCC2)c(OC)c1OC,inactive: -7.81%
4,CC(C)(C)OC(=O)N1CCC(N(C(=O)c2ccccc2)c2ccc(F)cc2)CC1,inactive: 9.57%
5,COc1ccc(C(=O)NCC2(N3CCCCC3)CCCCC2)cc1,inactive: 0.711%
6,CCCCn1nnnc1C(c1ccc(OC)cc1)N1CCC(n2c(=O)[nH]c3ccccc32)CC1 (configuration not stated),inactive: 0.606%
7,CCOC(=O)N1CCC(Nc2ccc(OC)cc2)CC1,inactive: -4.2%
8,O=C1C(O)=C([N+](=O)[O-])C(=O)C(O)=C1[N+](=O)[O-],inactive: 0.97%
9,COc1ccc(Cl)cc1C(=O)NCC1(N2CCOCC2)CCCCC1,inactive: -0.293%
10,O=c1[nH]c2ccccc2n1C1CCN(C(c2cc3ccccc3o2)c2nnnn2C2CCCCC2)CC1 (configuration not stated),inactive: 20.1%
11,O=C(OC1CN2CCC1CC2)C1c2ccccc2Oc2ccccc21 (configuration not stated),inactive: 11.8%
12,O=C(NCC1(N2CCCCC2)CCCCC1)c1ccc(Cl)s1,inactive: -5.66%
13,N#CC1(Nc2ccccc2)CCN(Cc2ccccc2)CC1,inactive: -11.7%
14,O=C(NCC1(N2CCOCC2)CCCCC1)c1cc2ccccc2o1,inactive: 6.49%
15,Cc1cc(C)cc(N(C(=O)c2ccccc2)C2CCN(C(=O)OC(C)(C)C)CC2)c1,inactive: 1.57%
16,O=C(NCC1(N2CCCCC2)CCCCC1)c1ccc(Cl)nc1,inactive: -6.87%
